Our source for the IC50 values is patent US10023539B2, “Aryl-cyanoguanidine compounds” (Bayer Pharma Aktiengesellschaft, priority 2014, dated 2018).

Amino acid sequences for entries named in this document (tags omitted). A change or cut given only in a name is not applied to a line headed by its entry.
UniProt Q9NRG4: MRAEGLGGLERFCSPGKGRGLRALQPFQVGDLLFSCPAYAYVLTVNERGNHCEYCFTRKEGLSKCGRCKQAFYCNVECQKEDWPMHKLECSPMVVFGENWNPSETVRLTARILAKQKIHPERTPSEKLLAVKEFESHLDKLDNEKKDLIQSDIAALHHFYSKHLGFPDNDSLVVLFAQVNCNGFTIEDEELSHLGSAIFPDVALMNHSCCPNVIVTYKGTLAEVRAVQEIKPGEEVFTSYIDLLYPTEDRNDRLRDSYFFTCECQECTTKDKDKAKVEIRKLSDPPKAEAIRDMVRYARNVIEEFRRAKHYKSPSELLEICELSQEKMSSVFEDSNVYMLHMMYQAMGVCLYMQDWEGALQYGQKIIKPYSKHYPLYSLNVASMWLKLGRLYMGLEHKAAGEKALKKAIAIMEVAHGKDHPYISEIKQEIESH

In assay [1] the target is T1, SMYD2 (Homo sapiens (Human), UniProt Q9NRG4). Kind of assay: Scintillation Proximity Assay (SPA) for detection of SMYD2 enzymatic inhibition. In kind it is biochemical. To be noted: methylation of biotinylated p53 Peptide, 3H-SAM, full length SMYD2; read-out: IC50 [mol/l] (SPA Assay). The protocol: 1.1 Scintillation Proximity Assay (SPA) for Detection of SMYD2 Enzymatic Inhibition
The SMYD2 full length enzyme was produced in-house by expression (with an N-terminal 6×His tag) in E. coli and purification by affinity chromatography on a Ni-NTA Sepharose column followed by a size exclusion chromatography step on a Superdex 200 16/60 column (GE Healthcare).
To this end, 100-fold concentrated compound solutions (in DMSO) were previously prepared by serial dilution (1:3.4) of 2 mM stocks in a clear low volume 384-well source microtiter plate (Greiner Bio-One), from which 50 nl of compound solutions were transferred into a white low volume test microtiter plate from the same supplier. […] The samples were then incubated for 15 min at 22° C. to allow pre-equilibration of the putative enzyme-inhibitor complexes before the start of the methylation reaction, which was initiated by the addition of 2.5 μl 2-fold concentrated solution (in assay buffer) of titrated S-Adenosyl-L-Methionine (3H-SAM, Perkin Elmer, final concentration: 60 nM) and p53 Peptide substrate (final concentration: 1.0 μM). The resulting mixture (5 μl final volume) was shortly centrifuged (2 min., 1500 rpm) and incubated at 22° C. during 30 min. Thereupon the reaction was stopped by adding 3 μl of Streptavidin PS SPA imaging beads (Perkin Elmer, final concentration of 3.12 μg/μl) and “cold” SAM (AK Scientific, 25 μM final concentration) for non-specific binding reduction. Plates containing the stopped reaction were sealed with transparent adhesive foil (Perkin Elmer), centrifuged (2 min., 1500 rpm), and further incubated for—at least—1 h at RT (or overnight at 4° C.) in order to allow the SPA signals to develop. […] IC50 values were calculated by fitting the normalized inhibition data to a 4-parameter logistic equation using the “Screener” analysis software from Genedata.

Assay [2] has as its target T1, SMYD2. As to the kind of experiment: In Cell Western (ICW) cell-based assay for detection of SMYD2 methylation activity. To be noted: SMYD2 overexpressing KYSE-150 cells, 72 h treatment, p53K370me1 signal; read-out: IC50 [mol/l] (ICW assay).

For `CCN(C(=O)CO)C1CN(/C(=N\C#N)Nc2cccc(OC(F)F)c2)N=C1c1ccc(Cl)c(C)c1` (single isomer, unassigned) [Example 33.2, N-[3-(4-chloro-3-methylphenyl)-1-{N′-cyano-N-[3-(difluoromethoxy)phenyl]carbamimidoyl}-4,5-dihydro-1H-pyrazol-4-yl]-N-ethyl-2-hydroxyacetamide], the IC50 in assay [1] is 37.6 nM; in assay [2] it was 96.4 nM.

`CC(C)(O)C(=O)NC1CN(/C(=N\C#N)Nc2cccc(OC(F)F)c2)N=C1c1ccc(Cl)c(Cl)c1` (racemic) [Example 5, Rac-N-[1-{N′-cyano-N-[3-(difluoromethoxy)phenyl]carbamimidoyl}-3-(3,4-dichlorophenyl)-4,5-dihydro-1H-pyrazol-4-yl]-2-hydroxy-2-methylpropanamide]: the IC50 in assay [2] was determined as 4140 nM.

For the molecule `CCN(C(=O)CO)C1CN(/C(=N\C#N)Nc2cccc(OC(F)F)c2)N=C1c1ccc(Cl)c(Cl)c1` (racemic) [Example 4, Rac-N-[1-{N′-cyano-N-[3-(difluoromethoxy)phenyl]carbamimidoyl}-3-(3,4-dichlorophenyl)-4,5-dihydro-1H-pyrazol-4-yl]-N-ethyl-2-hydroxyacetamide], the IC50 in assay [1] worked out at 82.5 nM; in assay [2], 176 nM.

Turning to `CCN(C(=O)CO)C1CN(/C(=N\C#N)Nc2cc(OC(F)F)ccc2OC)N=C1c1ccc(Cl)c(Cl)c1` (single isomer, unassigned) [Example 18.2, N-[1-{N′-cyano-N-[5-(difluoromethoxy)-2-methoxyphenyl]carbamimidoyl}-3-(3,4-dichlorophenyl)-4,5-dihydro-1H-pyrazol-4-yl]-N-ethyl-2-hydroxyacetamide], the IC50 in assay [1] was 30 nM; in assay [2], 28.7 nM.

Consider `CCN(C(=O)CO)C1CN(/C(=N\C#N)Nc2cc(C(F)(F)F)ccc2CN2CCCC2)N=C1c1ccc(Cl)c(Cl)c1` (racemic) [Example 27, Rac-N-[1-{N′-cyano-N-[2-(pyrrolidin-1-ylmethyl)-5-(trifluoromethyl)phenyl]carbamimidoy}-3-(3,4-dichlorophenyl)-4,5-dihydro-1H-pyrazol-4-yl]-N-ethyl-2-hydroxyacetamide], for which the IC50 in assay [1] came out at 355 nM; in assay [2], 95.9 nM.

Turning to `CCN(C(=O)CO)C1CN(/C(=N\C#N)Nc2cccc(OC)c2)N=C1c1ccc(Cl)c(Cl)c1` (single isomer, unassigned) [Example 15.2, N-{1-[N′-cyano-N-(3-methoxyphenyl)carbamimidoyl}-3-(3,4-dichlorophenyl)-4,5-dihydro-1H-pyrazol-4-yl]-N-ethyl-2-hydroxyacetamide], the IC50 was 71 nM in assay [1] and 99.6 nM in assay [2].

For the molecule `CCN(C(=O)CNC)C1CN(/C(=N\C#N)Nc2cccc(OC(F)F)c2)N=C1c1ccc(Cl)c(C)c1` (racemic) [Example 36, rac-N-[3-(4-Chloro-3-methylphenyl)-1-{N′-cyano-N-[3-(difluoromethoxy)phenyl]carbamimidoyl}-4,5-dihydro-1H-pyrazol-4-yl]-N-ethyl-N^2-methylglycinamide], the IC50 in assay [1] amounted to 40.7 nM; in assay [2], 166 nM.

In the case of `CCN(C(=O)CO)C1CN(/C(=N\C#N)Nc2cccc(OC(F)F)n2)N=C1c1ccc(Cl)c(Cl)c1` (racemic) [Example 20, Rac-N-[1-{N′-cyano-N-[6-(difluoromethoxy)pyridin-2-yl]carbamimidoyl}-3-(3,4-dichlorophenyl)-4,5-dihydro-1H-pyrazol-4-yl]-N-ethyl-2-hydroxyacetamide], the IC50 is 247 nM in assay [1] and 403 nM in assay [2].

In the case of `CCN(C(=O)CO)C1CN(/C(=N\C#N)Nc2cc(OC(F)F)ccc2OCCCN(C)C)N=C1c1ccc(Cl)c(Cl)c1` (racemic) [Example 29, Rac-N-[1-(N′-cyano-N-{5-(difluoromethoxy)-2-[3-(dimethylamino)propoxy]phenyl}-carbamimidoyl)-3-(3,4-dichlorophenyl)-4,5-dihydro-1H-pyrazol-4-yl]-N-ethyl-2-hydroxyacetamide], the IC50 in assay [1] turned out to be 5.55 nM; in assay [2], 214 nM.

On to `CCN(C(=O)CN)C1CN(/C(=N\C#N)Nc2cccc(OC(F)F)c2)N=C1c1ccc(Cl)c(Cl)c1` (racemic) [Example 3, Rac-N-[1-{N′-cyano-N-[3-(difluoromethoxy)phenyl]carbamimidoyl}-3-(3,4-dichlorophenyl)-4,5-dihydro-1H-pyrazol-4-yl]-N-ethylglycinamide], for which the IC50 in assay [1] was found to be 15 nM; in assay [2], 101 nM.

`CCN(C(=O)CCCN)C1CN(/C(=N\C#N)Nc2cccc(OC(F)F)c2)N=C1c1ccc(Cl)c(Cl)c1` (racemic) [Example 10, Rac-4-amino-N-[1-{N′-cyano-N-[3-(difluoromethoxy)phenyl]carbamimidoyl}-3-(3,4-dichlorophenyl)-4,5-dihydro-1H-pyrazol-4-yl]-N-ethylbutanamide]: the values for the IC50 in assay [1] and in assay [2] were 466 nM and 8000 nM, respectively.

Regarding `CCN(C(=O)CO)C1CN(/C(=N\C#N)Nc2cc(C(F)(F)F)ccc2OC2CCN(C)CC2)N=C1c1ccc(Cl)c(Cl)c1` (racemic) [Example 31, Rac-N-[1-(N′-cyano-N-{2-[(1-methylpiperidin-4-yl)oxy]-5-(trifluoromethyl)phenyl}-carbamimidoyl)-3-(3,4-dichlorophenyl)-4,5-dihydro-1H-pyrazol-4-yl]-N-ethyl-2-hydroxyacetamide], the results for the IC50 in assay [1] and in assay [2] were 9.09 nM and 126 nM, respectively.

Turning to `CCN(C(=O)CO)C1CN(/C(=N\C#N)Nc2cc(OC(F)F)ccc2OC)N=C1c1ccc(Cl)c(Cl)c1` (racemic) [Example 18, Rac-N-[1-{N′-cyano-N-[5-(difluoromethoxy)-2-methoxyphenyl]carbamimidoyl}-3-(3,4-dichlorophenyl)-4,5-dihydro-1H-pyrazol-4-yl]-N-ethyl-2-hydroxyacetamide], the figures for the IC50 in assay [1] and in assay [2] were 12.5 nM and 27.7 nM, respectively.

Consider `CCN(C(=O)CO)C1CN(/C(=N\C#N)Nc2cccc(OCCN(C)C)c2)N=C1c1ccc(Cl)c(Cl)c1` (single isomer, unassigned) [Example 16.2, N-[1-(N′-cyano-N-{3-[2-(dimethylamino)ethoxy]phenyl}carbamimidoyl)-3-(3,4-dichlorophenyl)-4,5-dihydro-1H-pyrazol-4-yl]-N-ethyl-2-hydroxyacetamide], for which the IC50 in assay [1] turned out to be 159 nM; in assay [2], 2580 nM.

With `CC(C)(O)C(=O)NC1CN(/C(=N\C#N)Nc2cccc(OC(F)F)c2)N=C1c1ccc(Cl)c(Cl)c1` (single isomer, unassigned) [Example 5.1, N-[1-{N′-cyano-N-[3-(difluoromethoxy)phenyl]carbamimidoyl}-3-(3,4-dichlorophenyl)-4,5-dihydro-1H-pyrazol-4-yl]-2-hydroxy-2-methylpropanamide], the IC50 in assay [1] was greater than 20000 nM.

Turning to `CCN(C(=O)CO)C1CN(/C(=N\C#N)Nc2cccc(OC(F)(F)F)c2)N=C1c1ccc(Cl)c(Cl)c1` (single isomer, unassigned) [Example 13.1, N-[1-{N′-cyano-N-[3-(trifluoromethoxy)phenyl]carbamimidoyl}-3-(3,4-dichlorophenyl)-4,5-dihydro-1H-pyrazol-4-yl]-N-ethyl-2-hydroxyacetamide], the IC50 in assay [1] was 4610 nM.

As to `CCN(C(=O)CO)C1CN(/C(=N\C#N)Nc2cc(C(F)(F)F)ccc2CN2CCCC2)N=C1c1ccc(Cl)c(Cl)c1` (single isomer, unassigned) [Example 27.2, N-[1-{N′-cyano-N-[2-(pyrrolidin-1-Ylmethyl)-5-(trifluoromethyl)phenyl]carbamimidoyl}-3-(3,4-dichlorophenyl)-4,5-dihydro-1H-pyrazol-4-yl]-N-ethyl-2-hydroxyacetamide], the IC50 in assay [1] turned out to be 1620 nM.

Regarding `CCN(C(=O)CO)C1CN(/C(=N\C#N)Nc2cc(F)cc(OC(F)(F)F)c2)N=C1c1ccc(Cl)c(Cl)c1` (racemic) [Example 25, Rac-N-[1-{N′-cyano-N-[3-fluoro-5-(trifluoromethoxy)phenyl]carbamimidoyl}-3-(3,4-dichlorophenyl)-4,5-dihydro-1H-pyrazol-4-yl]-N-ethyl-2-hydroxyacetamide], in assay [1], the IC50 turned out to be 108 nM.

Take `CCN(C(=O)CO)C1CN(/C(=N\C#N)Nc2cccc(OC(F)F)n2)N=C1c1ccc(Cl)c(Cl)c1` (single isomer, unassigned) [Example 20.2, N-[1-{N′-cyano-N-[6-(difluoromethoxy)pyridin-2-yl]carbamimidoyl}-3-(3,4-dichlorophenyl)-4,5-dihydro-1H-pyrazol-4-yl]-N-ethyl-2-hydroxyacetamide]: in assay [1], the IC50 worked out at 119 nM.

On to `CCN(C(=O)CCCN)C1CN(/C(=N\C#N)Nc2cccc(OC(F)F)c2)N=C1c1ccc(Cl)c(Cl)c1` (single isomer, unassigned) [Example 10.2, 4-amino-N-[1-{N′-cyano-N-[3-(difluoromethoxy)phenyl]carbamimidoyl}-3-(3,4-dichlorophenyl)-4,5-dihydro-1H-pyrazol-4-yl]-N-ethylbutanamide], for which the IC50 in assay [1] is 3830 nM.
